Experimental findings from ChEMBL document CHEMBL3407412, “Synthesis and bioevaluation of pyrazole-benzimidazolone hybrids as novel human 4-Hydroxyphenylpyruvate dioxygenase inhibitors” (Eur J Med Chem, 2015) are described below.

Amino acid sequences for entries named in this document (tags omitted). A change or cut given only in a name is not applied to a line headed by its entry.
UniProt P32754: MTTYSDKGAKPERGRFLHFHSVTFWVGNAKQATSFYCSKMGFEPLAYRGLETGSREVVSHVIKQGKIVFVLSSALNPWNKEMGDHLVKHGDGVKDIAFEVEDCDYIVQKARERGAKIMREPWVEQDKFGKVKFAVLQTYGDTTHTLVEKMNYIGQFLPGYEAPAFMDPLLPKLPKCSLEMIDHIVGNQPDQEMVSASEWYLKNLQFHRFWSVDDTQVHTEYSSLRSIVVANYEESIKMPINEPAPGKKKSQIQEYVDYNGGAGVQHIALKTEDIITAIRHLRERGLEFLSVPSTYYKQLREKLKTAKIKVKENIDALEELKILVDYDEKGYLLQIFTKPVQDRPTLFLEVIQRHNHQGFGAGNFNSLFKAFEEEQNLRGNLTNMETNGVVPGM

The target of the test is 4-hydroxyphenylpyruvate dioxygenase (Homo sapiens, UniProt P32754). The experiment in a line: Inhibition of human recombinant His-tagged HPPD expressed in Escherichia coli BL21(DE3) by UV/visible plate reader analysis.
The term IC50 denotes the concentration at which inhibition is half-maximal. On to `CCCn1c(=O)n(C)c2ccc(C(=O)c3cnn(C)c3O)cc21`, for which the IC50 was found to be 0.059 µM.

In the case of `CC(C)Cn1c(=O)n(C)c2ccc(C(=O)c3cnn(C)c3O)cc21`, the IC50 came out at 0.14 µM.

Consider `Cn1ncc(C(=O)c2ccc3c(c2)n(C2CCCC2)c(=O)n3C)c1O`, for which the IC50 turned out to be 0.13 µM.

`CC(C)n1c(=O)n(C)c2ccc(C(=O)c3cnn(C)c3O)cc21`: the IC50 worked out at 0.061 µM.

`CCn1c(=O)n(C)c2ccc(C(=O)c3cnn(C)c3O)cc21`: the IC50 is 0.022 µM.

Consider `Cn1ncc(C(=O)c2ccc3c(c2)n(Cc2ccccc2)c(=O)n3C)c1O`, for which the IC50 came out at 0.13 µM.

With `Cn1ncc(C(=O)c2ccc3c(c2)n(C2CC2)c(=O)n3C)c1O`, the IC50 worked out at 0.1 µM.

Consider `CCCn1c(=O)n(CC)c2ccc(C(=O)c3cnn(C)c3O)cc21`, for which the IC50 was 0.022 µM.

With `CCn1c(=O)n(CC)c2cc(C(=O)c3cnn(C)c3O)ccc21`, the half-maximal inhibitory concentration (IC50) came to 0.021 µM.

For `CCn1c(=O)n(C(C)C)c2cc(C(=O)c3cnn(C)c3O)ccc21`, the IC50 stood at 0.064 µM.

Turning to `CCn1c(=O)n(C(C)(C)C)c2cc(C(=O)c3cnn(C)c3O)ccc21`, the IC50 worked out at 0.15 µM.

In the case of `CCn1c(=O)n(C2CC2)c2cc(C(=O)c3cnn(C)c3O)ccc21`, the IC50 is 0.22 µM.

As for `CCCn1c(=O)n(CCC)c2cc(C(=O)c3cnn(C)c3O)ccc21`, the IC50 was found to be 0.04 µM.

Regarding `CCCn1c(=O)n(C(C)(C)C)c2cc(C(=O)c3cnn(C)c3O)ccc21`, the IC50 turned out to be 0.077 µM.

As to `CCCn1c(=O)n(C)c2ccc(C(=O)c3c(C)nn(C)c3O)cc21`, the IC50 is 1.03 µM.

Regarding `CCCCn1c(=O)n(C)c2ccc(C(=O)c3c(C)nn(C)c3O)cc21`, the IC50 is 0.64 µM.

For the molecule `Cc1nn(C)c(O)c1C(=O)c1ccc2c(c1)n(C1CCCC1)c(=O)n2C`, the IC50 amounted to 0.93 µM.

Consider `Cc1nn(C)c(O)c1C(=O)c1ccc2c(c1)n(C(C)C)c(=O)n2C`, for which the half-inhibitory concentration (IC50) was 0.94 µM.

Consider `CCn1c(=O)n(C)c2ccc(C(=O)c3c(C)nn(C)c3O)cc21`, for which the IC50 came out at 0.97 µM.

As for `Cc1nn(C)c(O)c1C(=O)c1ccc2c(c1)n(C(C)(C)C)c(=O)n2C`, the IC50 turned out to be 0.99 µM.

In the case of `Cc1ccc(-n2c(=O)n(C)c3ccc(C(=O)c4c(C)nn(C)c4O)cc32)cc1`, the IC50 stood at 0.99 µM.

Consider `CCCn1c(=O)n(CC)c2ccc(C(=O)c3c(C)nn(C)c3O)cc21`, for which the IC50 was determined as 0.88 µM.

On to `CCn1c(=O)n(CC)c2cc(C(=O)c3c(C)nn(C)c3O)ccc21`, for which the IC50 stood at 0.94 µM.

`CCn1c(=O)n(C(C)C)c2cc(C(=O)c3c(C)nn(C)c3O)ccc21`: the IC50 was found to be 0.97 µM.

For the molecule `CCCn1c(=O)n(CC)c2cc(C(=O)c3c(C)nn(C)c3O)ccc21`, the IC50 stood at 0.74 µM.

As for `CCCn1c(=O)n(CCC)c2cc(C(=O)c3c(C)nn(C)c3O)ccc21`, the IC50 was 0.72 µM.

As to `CCCn1c(=O)n(C(C)C)c2cc(C(=O)c3c(C)nn(C)c3O)ccc21`, the IC50 was 1.19 µM.
